Reference: patent US7838556B2 (priority 2006, dated 2010)

Protein sequences, listed by entry. Tags and fused reporters are not part of them. Lines headed by an entry give the natural chain unless they say otherwise; changes in a name come on top.
UniProt Q9Z0U4: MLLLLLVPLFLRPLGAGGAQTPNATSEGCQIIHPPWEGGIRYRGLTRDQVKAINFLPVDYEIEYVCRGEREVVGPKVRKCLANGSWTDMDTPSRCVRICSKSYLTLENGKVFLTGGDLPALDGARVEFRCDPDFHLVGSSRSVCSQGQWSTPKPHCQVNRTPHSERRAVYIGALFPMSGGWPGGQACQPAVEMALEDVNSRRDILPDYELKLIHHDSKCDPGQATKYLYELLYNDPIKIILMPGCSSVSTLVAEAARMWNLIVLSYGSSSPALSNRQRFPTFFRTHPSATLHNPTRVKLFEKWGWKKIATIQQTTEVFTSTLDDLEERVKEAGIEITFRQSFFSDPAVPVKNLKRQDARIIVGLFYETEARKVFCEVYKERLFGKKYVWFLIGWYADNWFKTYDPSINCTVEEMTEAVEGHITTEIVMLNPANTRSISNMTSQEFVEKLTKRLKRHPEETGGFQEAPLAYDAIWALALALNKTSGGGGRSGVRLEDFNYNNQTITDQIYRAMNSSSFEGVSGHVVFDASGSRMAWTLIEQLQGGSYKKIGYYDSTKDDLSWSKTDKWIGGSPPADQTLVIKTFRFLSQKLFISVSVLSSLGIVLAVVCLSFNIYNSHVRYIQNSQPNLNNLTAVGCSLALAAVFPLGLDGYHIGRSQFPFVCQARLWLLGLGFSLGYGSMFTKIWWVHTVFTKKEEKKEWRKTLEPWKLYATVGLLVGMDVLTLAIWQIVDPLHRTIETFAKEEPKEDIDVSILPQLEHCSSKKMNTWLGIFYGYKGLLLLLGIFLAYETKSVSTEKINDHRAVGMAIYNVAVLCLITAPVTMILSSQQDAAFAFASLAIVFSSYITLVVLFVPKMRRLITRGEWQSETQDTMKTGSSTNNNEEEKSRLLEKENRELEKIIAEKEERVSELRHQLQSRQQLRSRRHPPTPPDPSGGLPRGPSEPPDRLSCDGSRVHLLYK
UniProt P11275: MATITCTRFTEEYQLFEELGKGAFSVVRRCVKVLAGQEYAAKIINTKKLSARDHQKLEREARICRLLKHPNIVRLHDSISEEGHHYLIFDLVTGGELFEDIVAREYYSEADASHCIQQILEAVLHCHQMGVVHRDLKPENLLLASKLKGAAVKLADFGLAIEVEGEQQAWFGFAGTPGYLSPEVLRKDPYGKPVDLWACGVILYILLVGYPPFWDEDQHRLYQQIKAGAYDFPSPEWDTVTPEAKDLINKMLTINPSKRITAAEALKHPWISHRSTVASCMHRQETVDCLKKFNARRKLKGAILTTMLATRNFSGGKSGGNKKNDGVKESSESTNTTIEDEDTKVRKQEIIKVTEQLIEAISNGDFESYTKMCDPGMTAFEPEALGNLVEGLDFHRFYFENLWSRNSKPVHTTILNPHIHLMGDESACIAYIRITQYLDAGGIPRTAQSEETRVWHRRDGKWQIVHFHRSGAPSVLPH

Assays:
GABAB receptors = GABAB receptors (Rattus norvegicus, UniProt Q9Z0U4); assay: inhibition of [3H]GABA binding to GABAB receptors; conditions: ligand 1 Mm; [3H]GABA (10 Nm); rat cerebellum membranes; mean±S.E.M.
[1] = target: GHB receptors (GHB sites) (Rattus norvegicus, UniProt P11275); assay: [3H]NCS-382 displacement at GHB sites; type: binding
GABA receptors = assay: displacement of [3H]GABA from GABA receptors (subtype not given); type: binding, rat; conditions: in words
GABAA receptors = assay: inhibition of [3H]GABA binding to GABAA receptors; conditions: ligand 1 Mm; [3H]GABA (10 Nm); rat cerebral cortex membranes; mean±S.E.M.

## phenylpropyl ether of 3-hydroxyphenylacetic acid
GABAB receptors
  Percent displacement of [3H]GABA at 1 Mm, GABAB: 6.0 ± 2.6%
[1]; in words
  GHB receptor affinity compared with 3-hydroxyphenylacetic acid: increased slightly
[1]; read-out: [3H]NCS382 IC50 (μM) GHB sites, [3H]NCS-382 (16 Nm), rat cerebrocortical membranes, mean±S.E.M.
  IC50: 4.5 µM
GABA receptors
  affinity at GABA receptors / displacement of [3H]GABA compared with 3-hydroxyphenylacetic acid: decreased
GABAA receptors
  Percent displacement of [3H]GABA at 1 Mm, GABAA: 17.4 ± 13.2%
